Values of other authors in paper PMC10094977.

Columns and labels:
[1] = biological target: Cav1.2 preIQ-C peptide 1614-1635 (Oryctolagus cuniculus) (UniProt P15381); test: fluorescence anisotropy
[2] = biological target: Cav1.2 preIQ-A peptide 1588-1609 (Oryctolagus cuniculus) (UniProt P15381); test: fluorescence anisotropy
[3] = biological target: Cav1.2 IQ' peptide 1650-1675 (Oryctolagus cuniculus) (UniProt P15381); test: fluorescence anisotropy
[4] = biological target: Cav1.2 IQ peptide 1644-1670 (Oryctolagus cuniculus) (UniProt P15381); test: fluorescence anisotropy
[5] = biological target: Cav1.2 alpha1C IQ domain IQ (UniProt Q13936)
[6] = biological target: Cav1.2 alpha1C preIQ (CB domain) preIQ (UniProt Q13936)
[7] = biological target: Cav1.3 channel (UniProt Q01668)

Which Kd [1] does the source give for Ca2+/calmodulin (from UniProt P0DP23) here?
The Kd was less than 2 nM.

What about the Kd [2] of the same substance?
The Kd was less than 2 nM.

What about the Kd [3] of the same substance?
The Kd was less than 2 nM.

What about the Kd [4] of the same substance?
Its Kd is less than 2 nM.

For Calmodulin (from UniProt P0DP23), which Kd [5] is on record?
The Kd was 40 nM.

What about the Kd [6] of the same substance?
The Kd was 12 nM.

And the Kd [7]?
Its Kd is 10 nM.

For apocalmodulin (from UniProt P0DP23), which Kd [1] is on record?
Its Kd is greater than 10000 nM.

And the Kd [2]?
Its Kd is greater than 10000 nM.

What about the Kd [3] of the same substance?
Its Kd is greater than 10000 nM.

And the Kd [4]?
The Kd was 14000 nM.
